Columns and labels:
J774.A1 = assay: Antiproliferative activity against mouse J774.A1 cells after 3 days by MTT conversion assay
WEHI-164 = assay: Antiproliferative activity against mouse WEHI164 cells after 3 days by MTT conversion assay
HEK293 = assay: Antiproliferative activity against HEK293 cells after 3 days by MTT conversion assay

**Q.** `CO[C@H]1C[C@H](O[C@H]2CC[C@@]3(C)C(=CC[C@]4(O)[C@@H]3C[C@@H](OC(=O)/C=C/c3ccccc3)[C@@]3(C)[C@]4(O)CC[C@]3(O)[C@H](C)O)C2)O[C@H](C)[C@H]1O[C@H]1C[C@H](OC)[C@H](O[C@H]2C[C@H](OC)[C@H](O[C@@H]3O[C@H](CO[C@@H]4O[C@H](CO)[C@@H](O)[C@H](O)[C@H]4O)[C@@H](O)[C@H](O)[C@H]3O)[C@@H](C)O2)[C@@H](C)O1` was tested. Which IC50 (J774.A1) did it give?
**A.** Its IC50 is 910 nM.

**Q.** And the IC50 (WEHI-164)?
**A.** The IC50 was 940 nM.

**Q.** Which IC50 (J774.A1) does the source give for `CO[C@@H]1[C@@H](O)[C@H](O[C@H]2[C@@H](OC)C[C@H](O[C@H]3[C@@H](OC)C[C@H](O[C@H]4CC[C@@]5(C)C(=CC[C@]6(O)[C@@H]5C[C@@H](OC(=O)/C=C/c5ccccc5)[C@@]5(C)[C@]6(O)CC[C@]5(O)C(C)=O)C4)O[C@@H]3C)O[C@@H]2C)O[C@H](C)[C@@H]1O[C@H]1C[C@@H](OC)[C@H](O[C@@H]2O[C@H](CO[C@@H]3O[C@H](CO)[C@@H](O)[C@H](O)[C@H]3O)[C@@H](O)[C@H](O)[C@H]2O)[C@@H](C)O1` here?
**A.** The IC50 was 620 nM.

**Q.** What about the IC50 (HEK293) of the same molecule?
**A.** The IC50 was 590 nM.

**Q.** What about the IC50 (WEHI-164) of the same molecule?
**A.** The IC50 was 950 nM.

**Q.** `CO[C@H]1[C@@H](O)[C@@H](C)O[C@@H](O[C@H]2[C@@H](OC)C[C@H](O[C@H]3[C@@H](OC)C[C@H](O[C@@H]4[C@@H](C)O[C@@H](O[C@H]5CC[C@@]6(C)C(=CC[C@]7(O)[C@@H]6C[C@@H](OC(=O)c6ccccc6)[C@@]6(C)[C@]7(O)CC[C@]6(O)[C@H](C)OC(=O)c6ccccc6)C5)C[C@H]4OC)O[C@@H]3C)O[C@@H]2C)[C@@H]1O` was tested. Which IC50 (J774.A1) did it give?
**A.** The IC50 was 1210 nM.

**Q.** What about the IC50 (HEK293) of the same molecule?
**A.** The IC50 was 1780 nM.

**Q.** Which results are given for `CO[C@H]1[C@@H](O)[C@@H](C)O[C@@H](O[C@@H]2[C@@H](C)O[C@@H](O[C@H]3[C@@H](OC)C[C@H](O[C@@H]4CO[C@@H](O[C@H]5CC[C@@]6(C)C(=CC[C@]7(O)[C@@H]6C[C@@H](OC(=O)c6ccccc6)[C@@]6(C)[C@]7(O)CC[C@]6(O)[C@H](C)OC(=O)c6ccccc6)C5)C[C@@H]4OC)O[C@@H]3C)C[C@H]2OC)[C@@H]1O`?
**A.** IC50 (J774.A1): 1860 nM; IC50 (HEK293): 620 nM

**Q.** Which results are given for `CO[C@@H]1[C@@H](O)[C@H](O[C@H]2[C@@H](OC)C[C@H](O[C@H]3[C@@H](OC)C[C@H](O[C@H]4[C@@H](OC)C[C@H](O[C@H]5CC[C@@]6(C)C(=CC[C@]7(O)[C@@H]6C[C@@H](OC(=O)/C=C/c6ccccc6)[C@@]6(C)[C@]7(O)CC[C@]6(O)C(C)=O)C5)O[C@@H]4C)O[C@@H]3C)O[C@@H]2C)O[C@H](C)[C@H]1O[C@@H]1O[C@H](CO)[C@@H](O)[C@H](O)[C@H]1O`?
**A.** IC50 (J774.A1): 50 nM; IC50 (HEK293): 380 nM; IC50 (WEHI-164): 850 nM

**Q.** How did the IC50 (J774.A1) turn out when `CO[C@H]1C[C@H](O[C@@H]2[C@@H](C)O[C@@H](O[C@H]3CC[C@@]4(C)C(=CC[C@]5(O)[C@@H]4C[C@@H](OC(=O)/C=C/c4ccccc4)[C@@]4(C)[C@]5(O)CC[C@]4(O)C(C)=O)C3)C[C@H]2OC)O[C@H](C)[C@H]1O[C@H]1C[C@@H](OC)[C@H](O[C@H]2C[C@@H](OC)[C@H](O[C@@H]3O[C@H](CO[C@@H]4O[C@H](CO)[C@@H](O)[C@H](O)[C@H]4O)[C@@H](O)[C@H](O)[C@H]3O)[C@@H](C)O2)[C@@H](C)O1` was run?
**A.** Its IC50 is 740 nM.

**Q.** What about the IC50 (HEK293) of the same molecule?
**A.** Its IC50 is 430 nM.

**Q.** And the IC50 (WEHI-164)?
**A.** Its IC50 is 660 nM.

**Q.** With `CO[C@@H]1[C@@H](O)[C@H](O[C@@H]2[C@@H](C)O[C@@H](O[C@H]3[C@@H](OC)C[C@H](O[C@H]4[C@@H](OC)C[C@H](O[C@H]5CC[C@@]6(C)C(=CC[C@]7(O)[C@@H]6[C@H](O)[C@@H](OC(=O)/C=C/c6ccccc6)[C@@]6(C)[C@]7(O)CC[C@]6(O)[C@H](C)O)C5)O[C@@H]4C)O[C@@H]3C)C[C@H]2OC)O[C@H](C)[C@H]1O[C@@H]1O[C@H](CO)[C@@H](O)[C@H](O)[C@H]1O` as the molecule, how does the IC50 (J774.A1) read?
**A.** The IC50 was 780 nM.

**Q.** What does the source list for `CO[C@H]1C[C@H](O[C@H]2CC[C@@]3(C)C(=CC[C@]4(O)[C@@H]3C[C@@H](OC(=O)/C=C/c3ccccc3)[C@@]3(C)[C@]4(O)CC[C@]3(O)C(C)=O)C2)O[C@H](C)[C@H]1O[C@H]1C[C@H](OC)[C@H](O[C@H]2C[C@@H](OC)[C@H](O[C@@H]3O[C@H](CO[C@@H]4O[C@H](CO)[C@@H](O)[C@H](O)[C@H]4O)[C@@H](O)[C@H](O)[C@H]3O)[C@@H](C)O2)[C@@H](C)O1`?
**A.** IC50 (J774.A1): 64 nM; IC50 (HEK293): 350 nM; IC50 (WEHI-164): 380 nM

**Q.** `CO[C@@H]1[C@@H](O)[C@H](O[C@@H]2[C@@H](C)O[C@@H](O[C@H]3[C@@H](OC)C[C@H](O[C@H]4[C@@H](OC)C[C@H](O[C@H]5CC[C@@]6(C)C(=CC[C@]7(O)[C@@H]6C[C@@H](OC(=O)/C=C/c6ccccc6)[C@@]6(C)[C@]7(O)CC[C@]6(O)C(C)=O)C5)O[C@@H]4C)O[C@@H]3C)C[C@H]2OC)O[C@H](C)[C@@H]1O[C@@H]1O[C@H](CO)[C@@H](O)[C@H](O)[C@H]1O` was tested. Which IC50 (J774.A1) did it give?
**A.** The IC50 was 56 nM.

**Q.** And the IC50 (HEK293)?
**A.** Its IC50 is 230 nM.

**Q.** What about the IC50 (WEHI-164) of the same molecule?
**A.** The IC50 was 390 nM.

**Q.** What does the source list for `CO[C@H]1[C@@H](O)[C@@H](C)O[C@@H](O[C@@H]2[C@@H](C)O[C@@H](O[C@H]3[C@@H](OC)C[C@H](O[C@H]4[C@@H](OC)C[C@H](O[C@H]5CC[C@@]6(C)C(=CC[C@]7(O)[C@@H]6C[C@@H](OC(=O)/C=C/c6ccccc6)[C@@]6(C)[C@]7(O)CC[C@]6(O)[C@H](C)O)C5)O[C@@H]4C)O[C@@H]3C)C[C@H]2OC)[C@@H]1O`?
**A.** IC50 (J774.A1): 2110 nM; IC50 (HEK293): 460 nM

**Q.** Which IC50 (J774.A1) does the source give for `CO[C@H]1C[C@H](O[C@@H]2[C@@H](C)O[C@@H](O[C@H]3CC[C@@]4(C)C(=CC[C@]5(O)[C@@H]4C[C@@H](OC(=O)/C=C/c4ccc(O)cc4)[C@@]4(C)[C@]5(O)CC[C@]4(O)C(C)=O)C3)C[C@H]2OC)O[C@H](C)[C@H]1O[C@H]1C[C@H](OC)[C@H](O[C@@H]2O[C@H](CO)[C@@H](O)[C@H](O)[C@H]2O)[C@@H](C)O1` here?
**A.** Its IC50 is 120 nM.

**Q.** What about the IC50 (HEK293) of the same molecule?
**A.** The IC50 was 100 nM.

**Q.** And the IC50 (WEHI-164)?
**A.** The IC50 was 80 nM.

**Q.** For `CO[C@@H]1[C@@H](O)[C@H](O[C@H]2[C@@H](OC)C[C@H](O[C@H]3[C@@H](OC)C[C@H](O[C@H]4[C@@H](OC)C[C@H](O[C@H]5CC[C@@]6(C)C(=CC[C@]7(O)[C@@H]6C[C@@H](OC(=O)/C=C/c6ccccc6)[C@@]6(C)[C@]7(O)CC[C@]6(O)[C@H](C)OC(=O)c6ccccn6)C5)O[C@@H]4C)O[C@@H]3C)O[C@@H]2C)O[C@H](C)[C@H]1O[C@@H]1O[C@H](CO)[C@@H](O)[C@H](O)[C@H]1O`, which IC50 (HEK293) is on record?
**A.** Its IC50 is 1370 nM.

**Q.** What about the IC50 (WEHI-164) of the same molecule?
**A.** Its IC50 is 640 nM.

**Q.** How did the IC50 (J774.A1) turn out when `CO[C@@H]1[C@@H](O)[C@H](O[C@@H]2[C@@H](C)O[C@@H](O[C@H]3[C@@H](OC)C[C@H](O[C@H]4[C@H](O)C[C@H](O[C@H]5CC[C@@]6(C)C(=CC[C@]7(O)[C@@H]6C[C@@H](OC(C)=O)[C@@]6(C)[C@]7(O)CC[C@]6(O)C(C)=O)C5)O[C@@H]4C)O[C@@H]3C)C[C@H]2OC)O[C@H](C)[C@H]1O` was run?
**A.** Its IC50 is 780 nM.

**Q.** And the IC50 (WEHI-164)?
**A.** Its IC50 is 640 nM.

**Q.** With `CO[C@@H]1[C@@H](O)[C@H](O[C@H]2[C@@H](OC)C[C@H](O[C@H]3[C@@H](OC)C[C@H](O[C@H]4CC[C@@]5(C)C(=CC[C@]6(O)[C@@H]5C[C@@H](OC(=O)/C=C/c5ccccc5)[C@@]5(C)[C@]6(O)CC[C@]5(O)[C@H](C)O)C4)O[C@@H]3C)O[C@@H]2C)O[C@H](C)[C@@H]1O[C@H]1C[C@@H](OC)[C@H](O[C@@H]2O[C@H](CO[C@@H]3O[C@H](CO)[C@@H](O)[C@H](O)[C@H]3O)[C@@H](O)[C@H](O)[C@H]2O)[C@@H](C)O1` as the molecule, how does the IC50 (J774.A1) read?
**A.** Its IC50 is 880 nM.

**Q.** What does the source list for `CO[C@H]1[C@@H](O)[C@@H](C)O[C@@H](O[C@@H]2[C@@H](C)O[C@@H](O[C@H]3[C@@H](OC)C[C@H](O[C@H]4[C@@H](OC)C[C@H](O[C@H]5CC[C@@]6(C)C(=CC[C@]7(O)[C@@H]6C[C@@H](OC(=O)/C=C/c6ccccc6)[C@@]6(C)[C@]7(O)CC[C@]6(O)C(C)=O)C5)O[C@@H]4C)O[C@@H]3C)C[C@H]2OC)[C@@H]1O`?
**A.** IC50 (J774.A1): 126 nM; IC50 (HEK293): 70 nM; IC50 (WEHI-164): 140 nM

**Q.** With `CO[C@H]1[C@@H](O)[C@@H](C)O[C@@H](O[C@@H]2[C@@H](C)O[C@@H](O[C@H]3[C@@H](OC)C[C@H](O[C@H]4[C@@H](OC)C[C@H](O[C@H]5CC[C@@]6(C)C(=CC[C@]7(O)[C@@H]6C[C@@H](OC(C)=O)[C@@]6(C)[C@]7(O)CC[C@]6(O)C(C)=O)C5)O[C@@H]4C)O[C@@H]3C)C[C@H]2OC)[C@@H]1O` as the molecule, how does the IC50 (J774.A1) read?
**A.** The IC50 was 790 nM.

**Q.** What about the IC50 (WEHI-164) of the same molecule?
**A.** Its IC50 is 720 nM.

**Q.** `CO[C@H]1[C@@H](O)[C@@H](C)O[C@@H](O[C@@H]2[C@@H](C)O[C@@H](O[C@H]3[C@@H](OC)C[C@H](O[C@H]4[C@@H](OC)C[C@H](O[C@H]5CC[C@@]6(C)C(=CC[C@]7(O)[C@@H]6C[C@@H](OC(=O)/C=C/c6ccccc6)[C@@]6(C)[C@]7(O)CC[C@]6(O)[C@H](C)OC(=O)c6ccccc6)C5)O[C@@H]4C)O[C@@H]3C)C[C@H]2OC)[C@@H]1O` was tested. Which IC50 (J774.A1) did it give?
**A.** The IC50 was 1220 nM.

From ChEMBL document CHEMBL1157322, “Pregnane glycosides from Leptadenia pyrotechnica” (2006)
